In US9556179B2 (BRISTOL-MYERS SQUIBB COMPANY, priority 2012, dated 2017):
pIC50: −log10 of the molar value.

By UniProt entry, the sequences of proteins in these tests, tags left out. Where a name states a change or a piece, a line headed by the entry shows the natural chain unless it says otherwise.
UniProt P49674, whole entry: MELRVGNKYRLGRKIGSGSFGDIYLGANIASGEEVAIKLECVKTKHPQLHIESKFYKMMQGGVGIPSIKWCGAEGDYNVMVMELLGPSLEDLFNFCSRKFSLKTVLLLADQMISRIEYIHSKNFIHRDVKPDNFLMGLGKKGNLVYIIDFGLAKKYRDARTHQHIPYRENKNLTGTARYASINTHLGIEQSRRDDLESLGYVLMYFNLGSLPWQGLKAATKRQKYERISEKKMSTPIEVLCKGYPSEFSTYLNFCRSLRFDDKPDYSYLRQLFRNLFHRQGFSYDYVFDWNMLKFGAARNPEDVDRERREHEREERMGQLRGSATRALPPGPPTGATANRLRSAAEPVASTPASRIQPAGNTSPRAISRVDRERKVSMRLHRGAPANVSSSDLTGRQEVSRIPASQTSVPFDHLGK
UniProt P48730, whole entry: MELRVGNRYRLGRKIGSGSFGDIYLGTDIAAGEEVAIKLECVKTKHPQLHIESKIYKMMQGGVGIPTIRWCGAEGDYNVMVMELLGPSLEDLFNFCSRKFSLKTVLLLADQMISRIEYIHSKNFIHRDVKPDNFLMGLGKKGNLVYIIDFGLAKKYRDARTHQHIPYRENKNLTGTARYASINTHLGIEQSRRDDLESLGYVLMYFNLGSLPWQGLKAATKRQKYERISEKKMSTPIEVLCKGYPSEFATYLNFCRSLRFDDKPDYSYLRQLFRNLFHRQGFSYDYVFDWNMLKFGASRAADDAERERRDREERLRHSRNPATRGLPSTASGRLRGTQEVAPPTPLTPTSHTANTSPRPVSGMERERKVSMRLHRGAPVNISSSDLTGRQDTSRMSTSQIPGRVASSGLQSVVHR

Columns and labels:
CK1ε = CK1ε (Homo sapiens (Human), UniProt P49674); assay: CK1ε kinase assay (Caliper LABCHIP electrophoretic separation of fluoresceinated peptide substrate and product); format: biochemical; details: read-out: CK1ε (IC50); 200 pM enzyme, 50 μM ATP, 22 hours at room temperature
CK1δ = CK1δ (Homo sapiens (Human), UniProt P48730); assay: CK1δ kinase assay (Caliper LABCHIP electrophoretic separation of fluoresceinated peptide substrate and product); format: biochemical; details: read-out: CK1δ (IC50); 200 pM enzyme, 50 μM ATP, 22 hours at room temperature

pIC50 (CK1ε)	pIC50 (CK1δ)	SMILES
9.45	–	Cc1nc(-c2ccncc2)sc1C(=O)Nc1cn2nc(-c3c(-c4ccc(F)cc4)ncn3C3CCNCC3)ccc2n1
8.91	9.07	Cc1nc(-c2ccncc2)sc1C(=O)Nc1cn2nc(-c3c(-c4ccc(F)cc4)ncn3C3CCN(C)CC3)ccc2n1
